## scFv variants of Ab-95 (light chain) against a SARS-CoV-2 spike peptide

Values reported by Engelhart et al. 2022, doi:10.1038/s41597-022-01779-4 (FLAb copy).

Target peptide (SARS-CoV-2 spike, HR2 region): PDVDLGDISGINAS

Parent: Ab-95, a human scFv built as VH, a (GGGGS)3 linker, VL. Only the CDRs of the light chain vary.
VH: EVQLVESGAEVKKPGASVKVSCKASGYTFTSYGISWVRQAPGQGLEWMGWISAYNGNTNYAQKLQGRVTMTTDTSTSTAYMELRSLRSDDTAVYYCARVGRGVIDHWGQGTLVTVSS
VL: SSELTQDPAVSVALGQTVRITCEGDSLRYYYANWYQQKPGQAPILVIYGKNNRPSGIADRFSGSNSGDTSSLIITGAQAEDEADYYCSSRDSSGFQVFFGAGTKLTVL

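AAYL52 was designed without a model: most single CDR substitutions and a random sample of double and triple ones. AlphaSeq pools MATa yeast showing the antibodies with MATalpha yeast showing the peptide. The frequency of each diploid, read from paired DNA barcodes, reflects how well the two displayed proteins bind. The ratio of observed to expected reads was calibrated, replicate by replicate, on BCL2-family standards whose Kd was known from biolayer interferometry. Each pool was mated in three replicate cultures.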

Substitutions are numbered in sequence along the VL above, starting at 1 (not Kabat).
Values are log10 of the apparent Kd in nM; lower means stronger binding.
Averages over replicates are reported, and they cover detected replicates only.
"not detected" marks a missing value. The strain was present, yet no cells mated with the target were sequenced in any replicate, which points to weak or no binding.
Order: sorted from the lowest average up, undetected variants last.
Nonspecific signal, from three strains lacking the peptide, appeared in 28% of pairings of library AAYL52, centred on 3.91 (5% of these signals below 2.90); values are not corrected for it.

{"changes": "D25E+N52T+Q96R", "log10 Kd (nM), mean": "2.63", "seen in": "3 of 3"}
{"changes": "S55T+S92F+F95W", "log10 Kd (nM), mean": "2.83", "seen in": "3 of 3"}
{"changes": "E23S+G24F+Y30L", "log10 Kd (nM), mean": "2.94", "seen in": "3 of 3"}
{"changes": "Y30D+S55D+V97W", "log10 Kd (nM), mean": "2.97", "seen in": "3 of 3"}
{"changes": "Y29H+A32C+Q96L", "log10 Kd (nM), mean": "3.03", "seen in": "2 of 3"}
{"changes": "S92N+Q96T+F98Q", "log10 Kd (nM), mean": "3.10", "seen in": "3 of 3"}
{"changes": "A32N+N51M+N52Y", "log10 Kd (nM), mean": "3.37", "seen in": "1 of 3"}
{"changes": "Y29E+D91I+Q96F", "log10 Kd (nM), mean": "3.61", "seen in": "1 of 3"}
{"changes": "G49P+F95C+V97K", "log10 Kd (nM), mean": "3.66", "seen in": "2 of 3"}
{"changes": "G24V+S93E+V97Y", "log10 Kd (nM), mean": "3.69", "seen in": "2 of 3"}
{"changes": "A32Q+D91G+F95T", "log10 Kd (nM), mean": "3.98", "seen in": "2 of 3"}
{"changes": "Y29T+N51M+V97D", "log10 Kd (nM), mean": "4.13", "seen in": "2 of 3"}
{"changes": "G24M+R28H+N33R", "log10 Kd (nM), mean": "4.16", "seen in": "3 of 3"}
{"changes": "Y30K+D91Q+V97G", "log10 Kd (nM), mean": "5.07", "seen in": "2 of 3"}
{"changes": "G49A+S55W", "log10 Kd (nM), mean": "5.69", "seen in": "1 of 3"}
{"changes": "A32K+N33R+S92H", "log10 Kd (nM), mean": "not detected", "seen in": "0 of 3"}
{"changes": "G24R+Y31Q+A32L", "log10 Kd (nM), mean": "not detected", "seen in": "0 of 3"}
{"changes": "L27N+R28Y+G94A", "log10 Kd (nM), mean": "not detected", "seen in": "0 of 3"}
{"changes": "N51P+R53L+F98Y", "log10 Kd (nM), mean": "not detected", "seen in": "0 of 3"}

2 of these entries, quoted again:

{"changes": "A32N+N51M+N52Y", "log10 Kd (nM), mean": "3.37", "seen in": "1 of 3"}
{"changes": "D25E+N52T+Q96R", "log10 Kd (nM), mean": "2.63", "seen in": "3 of 3"}